Yeast mating assay B: variants of the scFv Ab-14

Data: MIT Lincoln Laboratory AlphaSeq set, Li et al. 2023, doi:10.1038/s41467-023-39022-2, as distributed in FLAb.

The target is the same throughout: PDVDLGDISGINAS, from the HR2 region of SARS-CoV-2 spike.

Ab-14 is the parent antibody, in scFv form: VH, then three GGGGS repeats, then VL. The heavy chain is unchanged in all variants.
VH: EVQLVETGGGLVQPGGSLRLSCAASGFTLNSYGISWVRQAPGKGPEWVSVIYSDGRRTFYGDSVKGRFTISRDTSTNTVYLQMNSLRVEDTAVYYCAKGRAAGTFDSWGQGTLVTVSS
VL: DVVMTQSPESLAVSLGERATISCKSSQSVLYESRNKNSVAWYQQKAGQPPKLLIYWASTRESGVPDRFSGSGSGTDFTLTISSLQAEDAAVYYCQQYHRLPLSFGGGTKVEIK

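Phage display of a naive human antibody library on the peptide gave the parent. These sequences belong to a second round, designed from the earlier measurements on random variants of the parent. Several design methods are mixed in this list. AlphaSeq pools MATa yeast showing the antibodies with MATalpha yeast showing the peptide. Pairs that bind mate more often; barcode pairs of the diploids are counted by sequencing. Scores were corrected for input abundance and mapped to Kd with protein pairs of known affinity run in the same pool. Each pool was mated in six replicate cultures.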

Each variant is given by its three light chain CDRs, as the data file delimits them; those of the parent are KSSQSVLYESRNKNSVA, WASTRES, QQYHRLPLS. Variants here have at most six changes. Values are log10 of the apparent Kd in nM; lower means stronger binding. Replicates are averaged; those with no signal do not enter the mean. A pair that was not seen in any replicate is written "not detected"; this usually means weak binding, but a binder can also be missed.

CDR-L1	CDR-L2	CDR-L3	log10 Kd (nM), mean	replicates with signal
KLSQSSLYESRNKNSVA	GGNTRES	QQYHRLPLS	-0.41	6/6
KVSQSFLYEQRNKNSVA	NASTRES	QQYHRLPLS	-0.10	6/6
KLSQSYLYESRNSNSVA	NASTRES	QQYHRLPLS	0.62	6/6
KVSQSVLYESRNKNSVA	ESSTRES	QQYHRLPLS	-0.45	6/6
KVLWSVLYESNNKNSVA	HASTREP	QQYHRLPLS	0.41	6/6
KQSQSVLYESRNKNSVA	EASTRES	QQYQRLPLS	0.50	6/6
KSSQSVLYESRNSNSVA	GATTRES	QQYHRLPLS	0.21	6/6
KLQQSVPYESRNKNSVA	NASTRED	QQYHRLPLS	-0.04	6/6
KLSQSQLYESRNKNSVA	NASKRES	QQYHRLPLS	0.83	6/6
KQSQSVLMESRNSNSVA	DASTRES	QQYHRLPLS	0.07	6/6
KLSQSVLYESRNKNSVA	NASTREV	QQYHRLPLS	-0.25	6/6
KSSQSWLYESRNKNSVA	NASTREQ	QQYHRLPLS	-0.54	6/6
KLQFSWLYESRNKNSVA	NASQRES	QQYHRLPLS	-0.25	6/6
KLSQSMQYESRNKNSVA	NASTRES	QQYHRLPLS	0.00	6/6
KSSQSVLFESPNKNSVA	WASTRES	QQYHRLPWS	2.91	1/6
KHLQSVLYETRNKNSVA	WASTRES	QQYKRWPLI	2.12	5/6
KLPQSHLYESRNKNSVA	QASQRES	QQYHRLPLS	-0.13	6/6
KSSQSKLYESMNKNSVA	NASTREM	QQYHRLPLS	-0.18	6/6
KMSQSVLMETRNKNSVA	DASLRES	QQYHRLPLS	-0.29	6/6
KASQSWLYESRNKNSVA	GASFRES	QQYHRLPLS	-0.26	6/6
KLSQSHLYESRNKNSVA	EASQRES	QQYHRLPLS	0.04	6/6
KMEQSQLYESRNKNSVA	NASTRES	QQYHRLPLS	0.26	6/6
KQSQSDLCESRNKNSVA	DASTRES	QQYHRLPLS	0.91	6/6
KLSQSWLYESRNKNSVA	GASTRES	QQYHRLPLI	-0.53	6/6
KISQSVPYESRNKNSVA	QASTRES	QQYHRLPLS	0.12	6/6
KSSNSVLFESRNKNSVA	GASTREQ	QQYHRLPLS	-0.23	6/6
KLQQSNLYESRNKNSVA	NASQRES	QQYHRLPLS	0.00	6/6
KSSISMLYESRNTNSVA	EASTRES	QQYHRLPLS	0.00	6/6
KSSQSVDNESRNKNSVA	DASTRES	QQYHRMPLS	0.23	6/6
KSSQSVLYESRNLNSVA	WASTREP	QQYHRLPTS	1.43	6/6
KFSQSQLYETRNKNSVA	NASQRES	QQYHRLPLS	-0.24	6/6
KSSQGVLYESRNQNSLA	YASTRES	QQPHRLPLW	not detected	0/6
KLSQSQLYESRNKNSVA	NASTRES	QQYHRLPLE	-0.09	6/6
KSSQSVLYEGRNKNSVA	WASTGES	QQYSRLPLS	not detected	0/6
KSSQSVLYESRNKNSVA	WASTRES	QQYHRLELS	not detected	0/6
HLSQSELYESRNKNSVA	NASQRES	QQYHRLPLS	-0.15	6/6
KSLQSGLYESRNKNSVA	HASTRED	QQYHRLPLS	0.11	6/6
HLSQSMLYESRNKNSVA	NASTRMS	QQYHRLPLS	-0.31	6/6
KLQQSELYESRNKNSVA	NASYRMS	QQYHRLPLS	-0.09	6/6
KSSQSVLYESRNKNSVA	KASTRES	FQYHRVPLS	not detected	0/6
KSSQSVLYESRNDNSVA	GASTRES	QQYHRLPLS	0.74	6/6
KLSQSVGYESRNKNSVA	NASTRED	QQYHRLPLS	-0.10	6/6
KSSQSVLYEGREKNSVA	WASTRES	QQYHRLPLS	1.57	6/6
KLSQSELYESRNWNSVA	NASTRES	QQYHRLPLS	0.15	6/6
KLSFSCLYESANKNSVA	NASTRLS	QQYHRLPLS	-0.14	6/6
KMSQSWLGEQRNKNSVA	DISTRES	QQYHRLPLS	-0.13	6/6
KMYQSGLYESRNKNSVA	SASMRES	QQYHRLPLS	-0.18	6/6
KYQQQVLTESRNKNSVA	NASTRES	QQYHQLPLS	0.70	6/6
KVSQSVLYESRNKNSVA	DASTRES	QQYHRLPLQ	-0.18	6/6
KLSMMVDYEDRNKNSVA	SASTRES	QQYHRLPLS	0.33	6/6
KVSESELYESRWKNSVA	NASYRES	QQYHRLPLS	0.28	6/6
KSSQSVLYESRNKNSVA	WASTRES	QCYHRLPLS	not detected	0/6
KSSLSVLYETDQKNSVA	WASTRES	QQYHMLPLW	not detected	0/6
KSLQLVLYESRNKNSVA	HASTRED	QQYHRLPLS	1.01	6/6

The first 6 variants above that were never detected:

CDR-L1,CDR-L2,CDR-L3,"log10 Kd (nM), mean",replicates with signal
KSSQGVLYESRNQNSLA,YASTRES,QQPHRLPLW,not detected,0/6
KSSQSVLYEGRNKNSVA,WASTGES,QQYSRLPLS,not detected,0/6
KSSQSVLYESRNKNSVA,WASTRES,QQYHRLELS,not detected,0/6
KSSQSVLYESRNKNSVA,KASTRES,FQYHRVPLS,not detected,0/6
KSSQSVLYESRNKNSVA,WASTRES,QCYHRLPLS,not detected,0/6
KSSLSVLYETDQKNSVA,WASTRES,QQYHMLPLW,not detected,0/6

Three control strains display no target. For all light chain designs, 4% of the pairings with them gave a signal, with a median of 2.64 and one signal in twenty below 1.59, so weak values seen in few replicates may be background. The range of this assay differs from that of the first round, and the authors advise against merging the two. The authors averaged sequences with at least three values out of six and counted those with two or fewer as poor binders. The parent sequence was in this pool as ten entries: three were never detected, three once, and four in most replicates, with averages from 0.34 to 2.37.